From ChEMBL document CHEMBL5518233, “Design and Synthesis of 3-(2H-Chromen-3-yl)-5-aryl-1,2,4-oxadiazole Derivatives as Novel Toll-like Receptor 2/1 Agonists That Inhibit Lung Cancer In Vitro and In Vivo” (J Med Chem, 2024)
Activity calls are given as the source filed them. No cut-off for these calls is given here.

The chains behind the UniProt entries cited, without tags or fusion partners.
UniProt O00206, whole entry: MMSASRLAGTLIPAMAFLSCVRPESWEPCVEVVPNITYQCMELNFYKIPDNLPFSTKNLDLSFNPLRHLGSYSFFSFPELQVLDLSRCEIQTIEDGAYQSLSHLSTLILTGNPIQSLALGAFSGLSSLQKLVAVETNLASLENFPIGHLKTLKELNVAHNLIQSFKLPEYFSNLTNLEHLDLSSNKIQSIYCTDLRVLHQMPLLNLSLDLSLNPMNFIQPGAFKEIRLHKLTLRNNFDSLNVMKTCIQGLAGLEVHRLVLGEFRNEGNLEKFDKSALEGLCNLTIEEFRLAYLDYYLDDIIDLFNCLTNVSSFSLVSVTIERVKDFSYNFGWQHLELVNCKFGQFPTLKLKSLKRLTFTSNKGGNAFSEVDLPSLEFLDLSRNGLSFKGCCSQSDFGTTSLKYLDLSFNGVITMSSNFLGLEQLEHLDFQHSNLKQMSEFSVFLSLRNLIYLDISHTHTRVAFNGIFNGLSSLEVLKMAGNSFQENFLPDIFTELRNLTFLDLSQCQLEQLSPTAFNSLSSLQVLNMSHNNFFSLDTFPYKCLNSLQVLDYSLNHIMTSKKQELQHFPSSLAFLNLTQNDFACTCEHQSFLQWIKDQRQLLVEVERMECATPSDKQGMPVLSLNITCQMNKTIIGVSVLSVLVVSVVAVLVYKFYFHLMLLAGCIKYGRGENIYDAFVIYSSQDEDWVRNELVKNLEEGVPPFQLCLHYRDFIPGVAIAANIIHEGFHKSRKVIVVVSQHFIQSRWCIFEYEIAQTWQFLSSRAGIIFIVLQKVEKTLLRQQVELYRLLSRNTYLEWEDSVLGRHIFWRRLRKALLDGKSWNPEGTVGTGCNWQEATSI
UniProt O60602, whole entry: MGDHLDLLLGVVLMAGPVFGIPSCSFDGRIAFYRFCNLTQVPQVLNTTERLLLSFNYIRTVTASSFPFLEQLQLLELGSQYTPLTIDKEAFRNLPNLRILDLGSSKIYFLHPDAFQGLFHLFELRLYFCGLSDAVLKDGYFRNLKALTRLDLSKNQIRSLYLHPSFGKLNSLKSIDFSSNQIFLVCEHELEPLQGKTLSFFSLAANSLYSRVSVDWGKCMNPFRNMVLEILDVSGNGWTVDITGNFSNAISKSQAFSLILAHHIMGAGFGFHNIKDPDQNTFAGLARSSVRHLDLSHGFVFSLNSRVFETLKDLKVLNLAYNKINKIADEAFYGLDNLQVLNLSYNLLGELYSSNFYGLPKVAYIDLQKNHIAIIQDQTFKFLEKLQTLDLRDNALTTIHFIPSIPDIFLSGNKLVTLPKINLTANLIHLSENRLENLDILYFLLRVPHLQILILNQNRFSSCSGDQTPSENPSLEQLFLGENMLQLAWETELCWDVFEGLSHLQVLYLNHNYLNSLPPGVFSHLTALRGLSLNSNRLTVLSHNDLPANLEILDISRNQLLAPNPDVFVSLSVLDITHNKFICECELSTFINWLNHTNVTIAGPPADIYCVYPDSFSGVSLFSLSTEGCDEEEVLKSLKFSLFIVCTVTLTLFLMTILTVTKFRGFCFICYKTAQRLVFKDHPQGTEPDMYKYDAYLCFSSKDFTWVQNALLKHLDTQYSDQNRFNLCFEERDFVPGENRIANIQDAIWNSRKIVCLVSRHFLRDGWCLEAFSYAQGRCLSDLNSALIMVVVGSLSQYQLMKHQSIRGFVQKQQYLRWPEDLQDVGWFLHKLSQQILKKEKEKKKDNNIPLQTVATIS

How the values were obtained:
Format in all cases: cell-based
Conditions in all cases: dose 0.01-50 µM
[1] = molecular target: T1, Toll-like receptor 9 (Homo sapiens) (UniProt Q9NR96); assay: Agonist activity at human TLR9 transfected in HEK293T cells at 0.01 to 50 uM incubated for 24 hrs by dual luciferase reporter gene assay
T1 sequence (whole entry): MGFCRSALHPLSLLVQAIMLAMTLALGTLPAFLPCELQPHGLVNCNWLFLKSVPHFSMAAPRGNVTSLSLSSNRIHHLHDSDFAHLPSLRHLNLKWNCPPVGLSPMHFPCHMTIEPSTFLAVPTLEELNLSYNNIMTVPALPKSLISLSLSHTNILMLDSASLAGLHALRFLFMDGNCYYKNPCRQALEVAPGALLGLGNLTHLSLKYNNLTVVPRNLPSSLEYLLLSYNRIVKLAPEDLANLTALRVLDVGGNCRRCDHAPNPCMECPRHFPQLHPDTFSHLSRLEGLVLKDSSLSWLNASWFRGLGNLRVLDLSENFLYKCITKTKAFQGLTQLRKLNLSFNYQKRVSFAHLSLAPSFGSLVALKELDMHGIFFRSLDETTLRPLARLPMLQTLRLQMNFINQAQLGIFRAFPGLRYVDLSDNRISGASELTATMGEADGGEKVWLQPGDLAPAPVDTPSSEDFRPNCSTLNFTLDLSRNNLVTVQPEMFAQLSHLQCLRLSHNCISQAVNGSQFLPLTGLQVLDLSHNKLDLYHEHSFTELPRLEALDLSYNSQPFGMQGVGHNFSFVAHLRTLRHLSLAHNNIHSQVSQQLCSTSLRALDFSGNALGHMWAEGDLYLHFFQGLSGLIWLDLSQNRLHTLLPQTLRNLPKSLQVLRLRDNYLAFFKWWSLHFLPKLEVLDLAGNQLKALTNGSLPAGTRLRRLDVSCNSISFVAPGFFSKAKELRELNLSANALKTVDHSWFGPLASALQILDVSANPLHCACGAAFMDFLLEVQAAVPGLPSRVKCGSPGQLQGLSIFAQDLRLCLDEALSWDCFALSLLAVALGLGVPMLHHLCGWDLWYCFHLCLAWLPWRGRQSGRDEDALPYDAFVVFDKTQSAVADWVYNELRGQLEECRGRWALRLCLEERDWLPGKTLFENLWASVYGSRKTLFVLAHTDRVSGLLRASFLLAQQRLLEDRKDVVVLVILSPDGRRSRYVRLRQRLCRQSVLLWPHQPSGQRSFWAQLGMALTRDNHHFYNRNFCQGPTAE

[2] = molecular target: Toll-like receptor 4 (Homo sapiens) (UniProt O00206); assay: Agonist activity at human TLR4 transfected in HEK293T cells at 0.01 to 50 uM incubated for 24 hrs by dual luciferase reporter gene assay
[3] = molecular target: T2, Toll-like receptor 3 (Homo sapiens) (UniProt O15455); assay: Agonist activity at human TLR3 transfected in HEK293T cells at 0.01 to 50 uM incubated for 24 hrs by dual luciferase reporter gene assay
T2 sequence (whole entry): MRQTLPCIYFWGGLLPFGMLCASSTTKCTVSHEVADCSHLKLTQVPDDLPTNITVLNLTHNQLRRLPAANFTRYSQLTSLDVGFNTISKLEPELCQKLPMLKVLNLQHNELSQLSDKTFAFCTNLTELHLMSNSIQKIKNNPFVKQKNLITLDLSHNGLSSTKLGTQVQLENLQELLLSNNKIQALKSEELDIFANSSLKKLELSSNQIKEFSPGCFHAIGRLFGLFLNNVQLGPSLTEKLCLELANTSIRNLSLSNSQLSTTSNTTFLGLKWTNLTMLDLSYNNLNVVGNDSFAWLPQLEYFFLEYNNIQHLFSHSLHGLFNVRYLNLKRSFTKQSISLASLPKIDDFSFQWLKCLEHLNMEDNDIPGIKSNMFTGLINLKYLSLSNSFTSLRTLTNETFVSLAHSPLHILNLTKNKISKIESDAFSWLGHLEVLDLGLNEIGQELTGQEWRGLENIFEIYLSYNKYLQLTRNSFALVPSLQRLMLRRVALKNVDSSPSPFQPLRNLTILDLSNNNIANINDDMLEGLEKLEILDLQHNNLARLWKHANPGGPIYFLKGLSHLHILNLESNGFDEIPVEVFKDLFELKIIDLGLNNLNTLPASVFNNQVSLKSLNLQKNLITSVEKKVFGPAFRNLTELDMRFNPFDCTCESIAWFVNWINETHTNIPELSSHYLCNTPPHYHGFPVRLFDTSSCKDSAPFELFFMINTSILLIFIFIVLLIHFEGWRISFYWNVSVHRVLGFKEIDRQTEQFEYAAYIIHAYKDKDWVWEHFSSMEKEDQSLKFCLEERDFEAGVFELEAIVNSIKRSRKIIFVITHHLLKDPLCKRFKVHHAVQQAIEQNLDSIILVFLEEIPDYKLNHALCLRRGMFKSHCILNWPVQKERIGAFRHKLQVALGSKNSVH

[4] = molecular target: Toll-like receptor 5 (Homo sapiens) (UniProt O60602); assay: Agonist activity at human TLR5 transfected in HEK293T cells at 0.01 to 50 uM incubated for 24 hrs by dual luciferase reporter gene assay

- Activity [1]: inactive
- Activity [2]: inactive
- Activity [3]: inactive
- Activity [4]: inactive
Compound: O=[N+]([O-])c1ccc(F)c(-c2nc(C3=Cc4cc(F)ccc4OC3)no2)c1
